Screening data (PubChem)
UUG fidelity = alters start codon recognition fidelity in yeast. S. cerevisiae UUG-firefly luciferase reporter, luminescence/redox ratio. AID 602363. activity score, % at 18.7 µM. hit rate 0.13% among 350,000;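 active = replicate mean at a twofold rise or more, about +100% in these data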;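 note: firefly luciferase made from a UUG start codon reports start codon fidelity; reporter light over untreated wells divided by growth signal over untreated wells; some hits fall short of that in this replicate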
ERp5 inh = ERp5 (human) disulfide isomerase inhibition; ERp5 insulin aggregation, absorbance 650 nm, 90 min; inhibition, % at 9.99 µM; 0.05% of 350,000 active;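 active means mean replicate inhibition above about 25%, with every replicate also reaching it, limit read from the data, passing the limit was not always enough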
PglD inh = PglD (C. jejuni) enzyme inhibition. purified PglD enzyme, DTNB colorimetric CoA detection. inhibition, % at 12.5 µM. 0.098% of 360,000 active; in the data active means inhibition above about 16%, passing the limit was not always enough
PDI inh = inhibitors of human protein disulfide isomerase; inhibition, % at 10 µM; 0.052% of 350,000 active; PDI insulin aggregation turbidity, A650, 90 min; P07237;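 active means mean inhibition across replicates of 30% or more, whatever share of single replicates reach that level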
ARNT-TACC3 inh = disrupts binding between human ARNT and TACC3. Q9Y6A5. inhibition, % at 9.99 µM. 0.66% of 390,000 active. AlphaScreen His-ARNT PAS-B/GST-TACC3 binding, luminescence; TACC3 fragment carries E629A point mutation;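 active means mean inhibition of replicates at least 50% and at least half of replicates each reaching 50%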;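 further: 0% = complete ARNT plus TACC3 wells and 100% = ARNT alone without TACC3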
FGF22 binding = shifts melting point of recombinant human FGF22. Q9HCT0. recombinant FGF22 thermal shift, SYPRO orange fluorescence; percent of sucrose octasulfate shift, DMSO zero. activity (Tm shift, normalised), % at 9.99 µM. 1.5% of 340,000 active. AID 651658;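 active means mean Tm shift, scaled 0 neutral to 100 positive control, at about 1.3% or above, every replicate too, limit read from the data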
The depositor's hits bear a star. A selection: hits, their analogues and other compounds. The true share with any hit is near 1.9%.

What do the screens show for `COc1ccc(C#Cc2ccc([C@@H]3[C@@H](CO)N4CCCCN(C(=O)Cc5ccncc5)C[C@H]34)cc2)cc1`?
UUG fidelity: -1; ERp5 inh: 0; PglD inh: -5; ARNT-TACC3 inh: 9; FGF22 binding: 0

How did N#CC1(c2ccccc2)CCN(C2CC(=O)N(c3ccc4c(c3)OCO4)C2=O)CC1 (centres undefined) do in these assays?
ERp5 inh: -4; PDI inh: 14; ARNT-TACC3 inh: -3; FGF22 binding: 44*

Results for CN1[C@@H](CO)[C@@H]2c3ccccc3NC[C@@H]21 ?
UUG fidelity: -10; ERp5 inh: 2; PglD inh: -3; ARNT-TACC3 inh: 2; FGF22 binding: 0

What do the screens show for `CCC(=O)N1[C@@H]2Cn3c(ccc(C4=CCCC4)c3=O)[C@H]1[C@@H](C(=O)OC)[C@@H]2CO`?
ERp5 inh: -6; PglD inh: -3; ARNT-TACC3 inh: 0; FGF22 binding: 0

How did CCN(CC)C(=O)c1ccc2c(c1)C1C=CCC1C(C(=O)O)N2 (centres undefined) do in these assays?
UUG fidelity: 4; ERp5 inh: 0; PglD inh: -1; PDI inh: 13; ARNT-TACC3 inh: 13*; FGF22 binding: 0

Results for CC(Cc1ccccc1Sc1ccccc1O)N(C)C (centres undefined) ?
UUG fidelity: -2; PglD inh: 3; PDI inh: 38*; ARNT-TACC3 inh: 21

What do the screens show for `O=P(CN1CCN(c2ccccc2)CC1)(N1CCCCC1)N1CCCCC1`?
UUG fidelity: -4; PglD inh: -3; PDI inh: -3; ARNT-TACC3 inh: 36

Results for CP(=O)(O)CN1CCCCC1 ?
ERp5 inh: 5; PDI inh: -4; ARNT-TACC3 inh: -2; FGF22 binding: 44*

What do the screens show for `O=C(Cc1cccnc1)N1CCCCN2[C@H](C1)[C@H](c1ccc(/C=C/c3ccccc3)cc1)[C@@H]2CO`?
UUG fidelity: -8; ERp5 inh: 2; PglD inh: -1; ARNT-TACC3 inh: 11; FGF22 binding: 0

Results for CC(C)(C)NS(=O)(=O)c1ccc(OCC(=O)N2CCN(Cc3ccccc3)CC2)cc1 ?
ERp5 inh: 4; PDI inh: 5; ARNT-TACC3 inh: -6; FGF22 binding: 44*

Results for CCCNS(=O)(=O)c1ccc(OCC(=O)N2CCN(Cc3ccccc3)CC2)cc1 ?
UUG fidelity: -8; PglD inh: 3; PDI inh: 6; ARNT-TACC3 inh: -10

Results for O=C1NC(=S)NC(=O)C1=Cc1cccc2cc3ccccc3cc12 ?
UUG fidelity: -13; ERp5 inh: 1; PglD inh: -10; PDI inh: 0; ARNT-TACC3 inh: 21*; FGF22 binding: 0

How did COc1ccc(C=C2C(=O)NC(=S)NC2=O)cc1 do in these assays?
ERp5 inh: -9; PDI inh: 10; ARNT-TACC3 inh: 6; FGF22 binding: 0

How did O=C(N/N=C/c1c(O)n(Cc2ccc(F)cc2)c(=S)[nH]c1=O)c1ccncc1 do in these assays?
UUG fidelity: -12; ERp5 inh: -2; PglD inh: 0; PDI inh: -6; ARNT-TACC3 inh: 61*; FGF22 binding: 0

How did CCn1c(O)c(/C=N/NC(=O)c2ccncc2)c(=O)[nH]c1=S do in these assays?
ERp5 inh: 4; PDI inh: 9; FGF22 binding: 0

Results for CCC(C)n1c(O)c(/C=N/NC(=O)c2ccncc2)c(=O)[nH]c1=S (centres undefined) ?
ERp5 inh: 1; PDI inh: 10; ARNT-TACC3 inh: 65*; FGF22 binding: 1

What do the screens show for `N#Cc1cccc(-c2ccc([C@H]3[C@H](CO)N4CCCCN(C(=O)Cc5ccncc5)C[C@@H]34)cc2)c1`?
UUG fidelity: -10; ERp5 inh: -7; PglD inh: -2; ARNT-TACC3 inh: 3; FGF22 binding: 0

Results for COC(=O)[C@@H]1[C@@H](CO)[C@@H]2Cn3c(ccc(-c4ccccc4F)c3=O)[C@H]1N2CC1CCCC1 ?
ERp5 inh: 8; PglD inh: 3; ARNT-TACC3 inh: -3; FGF22 binding: 0

Results for CCCN1[C@@H]2Cn3c(cccc3=O)[C@H]1[C@@H](C(=O)N(C)C)[C@@H]2CO ?
ERp5 inh: 4; PglD inh: 2; ARNT-TACC3 inh: 6; FGF22 binding: 0

What do the screens show for `O=C1NC(=O)C(CCc2ccncc2)(CCc2ccccn2)C(=O)N1c1ccc(Br)cc1` (centres undefined)?
ERp5 inh: 5; PDI inh: -4; ARNT-TACC3 inh: 1; FGF22 binding: 43*

What do the screens show for `CC=Cc1ccc2n(c1=O)C[C@@H]1[C@@H](CO)[C@H](C(=O)OC)[C@H]2N1CC1CCCC1` (mixture of isomers)?
ERp5 inh: 0

How did O=C(Cc1cccnc1)N1CCCCN2[C@H](CO)[C@H](c3ccc(C#CC4CC4)cc3)[C@H]2C1 do in these assays?
UUG fidelity: 34; ERp5 inh: 3; PglD inh: 3; ARNT-TACC3 inh: 4; FGF22 binding: 1

What do the screens show for `Cc1cc(C)c(-n2c(O)c(/C=N/NC(=O)c3ccncc3)c(=O)[nH]c2=O)c(C)c1`?
UUG fidelity: -35; ERp5 inh: -1; PglD inh: 0; PDI inh: 1; ARNT-TACC3 inh: 64*; FGF22 binding: 0

How did CCCCn1c(O)c(/C=N/NC(=O)c2ccncc2)c(=O)[nH]c1=O do in these assays?
UUG fidelity: -33; ERp5 inh: 4; PglD inh: -5; PDI inh: 0; ARNT-TACC3 inh: 66*; FGF22 binding: 0

What do the screens show for `CC(C)c1ccc(-n2c(O)c(/C=N/NC(=O)c3ccncc3)c(=O)[nH]c2=O)cc1`?
ERp5 inh: -10; PDI inh: 0; ARNT-TACC3 inh: 61*; FGF22 binding: 1

How did CCc1ccc(-n2c(O)c(/C=N/NC(=O)c3ccncc3)c(=O)[nH]c2=O)cc1 do in these assays?
PDI inh: -4; ARNT-TACC3 inh: 4

Results for Cc1ccccc1-n1c(O)c(/C=N/NC(=O)c2ccncc2)c(=O)[nH]c1=O ?
ERp5 inh: 0; PDI inh: 1; ARNT-TACC3 inh: 71*; FGF22 binding: 0

Results for CN(C)C(=O)[C@H]1[C@H](CO)[C@H]2Cn3c(cccc3=O)[C@@H]1N2CC1CC1 ?
UUG fidelity: -14; ERp5 inh: -2; PglD inh: 6; ARNT-TACC3 inh: 10; FGF22 binding: 0

Results for O=C(O)[C@@H]1[C@@H](CO)[C@@H]2Cn3c(ccc(-c4ccncc4)c3=O)[C@H]1N2C(=O)C1CCCCC1 ?
UUG fidelity: 42; ERp5 inh: -1; PglD inh: 2; ARNT-TACC3 inh: -2; FGF22 binding: 0

Some of these compounds in order of heavy-atom count, high to low.
Results for COC(=O)[C@@H]1[C@@H](CO)[C@@H]2Cn3c(ccc(-c4ccccc4F)c3=O)[C@H]1N2CC1CCCC1 ?
ERp5 inh: 8; PglD inh: 3; ARNT-TACC3 inh: -3; FGF22 binding: 0

What do the screens show for `Cc1cc(C)c(-n2c(O)c(/C=N/NC(=O)c3ccncc3)c(=O)[nH]c2=O)c(C)c1`?
UUG fidelity: -35; ERp5 inh: -1; PglD inh: 0; PDI inh: 1; ARNT-TACC3 inh: 64*; FGF22 binding: 0

Results for CN(C)C(=O)[C@H]1[C@H](CO)[C@H]2Cn3c(cccc3=O)[C@@H]1N2CC1CC1 ?
UUG fidelity: -14; ERp5 inh: -2; PglD inh: 6; ARNT-TACC3 inh: 10; FGF22 binding: 0

Of the compounds above, 2 contain an aryl methoxy group.
What do the screens show for `COc1ccc(C#Cc2ccc([C@@H]3[C@@H](CO)N4CCCCN(C(=O)Cc5ccncc5)C[C@H]34)cc2)cc1`?
UUG fidelity: -1; ERp5 inh: 0; PglD inh: -5; ARNT-TACC3 inh: 9; FGF22 binding: 0

How did COc1ccc(C=C2C(=O)NC(=S)NC2=O)cc1 do in these assays?
ERp5 inh: -9; PDI inh: 10; ARNT-TACC3 inh: 6; FGF22 binding: 0
